Test results from patent EP4834897A1, “COMPOUNDS WITH TWO AZAHETEROCYCLES SUBSTITUTED ISOINDOLINONE SKELETON AND USES THEREOF” (dated 2026).

The chains behind the UniProt entries cited, without tags or fusion partners.
UniProt Q96SW2, whole entry: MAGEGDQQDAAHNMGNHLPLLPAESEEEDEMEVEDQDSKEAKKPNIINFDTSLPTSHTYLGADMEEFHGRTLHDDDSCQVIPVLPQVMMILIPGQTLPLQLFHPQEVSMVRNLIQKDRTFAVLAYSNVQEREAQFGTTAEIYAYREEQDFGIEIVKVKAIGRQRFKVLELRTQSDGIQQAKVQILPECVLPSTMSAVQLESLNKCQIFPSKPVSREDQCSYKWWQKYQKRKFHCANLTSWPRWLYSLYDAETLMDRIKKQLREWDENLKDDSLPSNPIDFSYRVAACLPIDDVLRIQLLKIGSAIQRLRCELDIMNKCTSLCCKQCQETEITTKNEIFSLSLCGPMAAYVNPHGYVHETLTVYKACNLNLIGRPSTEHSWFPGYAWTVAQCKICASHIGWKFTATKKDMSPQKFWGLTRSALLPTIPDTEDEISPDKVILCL
UniProt P30291, whole entry: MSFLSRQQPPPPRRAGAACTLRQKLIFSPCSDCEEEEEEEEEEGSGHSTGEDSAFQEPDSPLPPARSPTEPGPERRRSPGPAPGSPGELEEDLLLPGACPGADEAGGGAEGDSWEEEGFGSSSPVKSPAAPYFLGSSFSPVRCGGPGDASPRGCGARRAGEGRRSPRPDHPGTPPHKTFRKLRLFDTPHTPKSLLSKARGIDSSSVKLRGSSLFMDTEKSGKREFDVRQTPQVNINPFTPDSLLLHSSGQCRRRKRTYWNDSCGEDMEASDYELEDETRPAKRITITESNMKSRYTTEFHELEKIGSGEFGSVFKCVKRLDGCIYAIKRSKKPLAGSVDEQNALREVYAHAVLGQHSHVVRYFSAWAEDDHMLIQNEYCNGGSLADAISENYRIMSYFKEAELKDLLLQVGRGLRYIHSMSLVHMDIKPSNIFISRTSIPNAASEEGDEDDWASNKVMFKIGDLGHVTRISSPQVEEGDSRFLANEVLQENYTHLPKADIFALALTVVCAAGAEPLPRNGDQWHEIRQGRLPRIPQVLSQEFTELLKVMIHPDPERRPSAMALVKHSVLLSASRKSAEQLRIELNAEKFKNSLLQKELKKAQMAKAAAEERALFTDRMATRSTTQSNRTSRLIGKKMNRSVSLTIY
UniProt P15170, whole entry: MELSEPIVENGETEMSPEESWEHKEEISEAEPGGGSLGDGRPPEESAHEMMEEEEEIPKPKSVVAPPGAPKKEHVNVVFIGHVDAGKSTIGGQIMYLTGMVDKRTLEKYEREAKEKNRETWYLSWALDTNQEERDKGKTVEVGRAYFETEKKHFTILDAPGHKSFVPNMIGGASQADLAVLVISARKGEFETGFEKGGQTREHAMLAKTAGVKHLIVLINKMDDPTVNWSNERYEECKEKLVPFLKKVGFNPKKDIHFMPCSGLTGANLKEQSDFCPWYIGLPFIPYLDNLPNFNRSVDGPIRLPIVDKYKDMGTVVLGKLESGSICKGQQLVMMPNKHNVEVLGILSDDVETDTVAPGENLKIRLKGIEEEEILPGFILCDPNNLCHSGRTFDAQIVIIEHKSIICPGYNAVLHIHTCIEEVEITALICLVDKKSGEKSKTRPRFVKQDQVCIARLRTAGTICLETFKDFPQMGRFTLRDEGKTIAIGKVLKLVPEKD
UniProt P48729, whole entry: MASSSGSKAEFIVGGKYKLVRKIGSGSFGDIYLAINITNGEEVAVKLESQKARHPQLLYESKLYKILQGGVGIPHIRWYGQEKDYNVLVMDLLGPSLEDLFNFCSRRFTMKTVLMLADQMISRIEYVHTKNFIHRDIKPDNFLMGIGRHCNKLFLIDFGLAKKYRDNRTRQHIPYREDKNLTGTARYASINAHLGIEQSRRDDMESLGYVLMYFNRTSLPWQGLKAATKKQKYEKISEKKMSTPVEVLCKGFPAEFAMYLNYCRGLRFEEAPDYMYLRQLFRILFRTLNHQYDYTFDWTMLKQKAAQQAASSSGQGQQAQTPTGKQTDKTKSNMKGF
UniProt Q13422, whole entry: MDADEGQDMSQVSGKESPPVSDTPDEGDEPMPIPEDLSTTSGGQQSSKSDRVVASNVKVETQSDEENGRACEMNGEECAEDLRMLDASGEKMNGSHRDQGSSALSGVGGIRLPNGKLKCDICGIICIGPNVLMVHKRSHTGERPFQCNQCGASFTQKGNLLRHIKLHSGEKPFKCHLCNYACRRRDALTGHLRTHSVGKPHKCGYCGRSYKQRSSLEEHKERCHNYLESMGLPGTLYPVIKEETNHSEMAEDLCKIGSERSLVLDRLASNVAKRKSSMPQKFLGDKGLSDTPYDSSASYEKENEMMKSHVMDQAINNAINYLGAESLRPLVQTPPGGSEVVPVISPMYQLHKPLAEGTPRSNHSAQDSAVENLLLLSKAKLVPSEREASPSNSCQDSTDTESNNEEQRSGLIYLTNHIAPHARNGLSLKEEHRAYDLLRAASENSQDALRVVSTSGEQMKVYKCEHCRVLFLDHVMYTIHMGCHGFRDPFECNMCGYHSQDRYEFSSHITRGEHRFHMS
UniProt Q9UKT9, whole entry: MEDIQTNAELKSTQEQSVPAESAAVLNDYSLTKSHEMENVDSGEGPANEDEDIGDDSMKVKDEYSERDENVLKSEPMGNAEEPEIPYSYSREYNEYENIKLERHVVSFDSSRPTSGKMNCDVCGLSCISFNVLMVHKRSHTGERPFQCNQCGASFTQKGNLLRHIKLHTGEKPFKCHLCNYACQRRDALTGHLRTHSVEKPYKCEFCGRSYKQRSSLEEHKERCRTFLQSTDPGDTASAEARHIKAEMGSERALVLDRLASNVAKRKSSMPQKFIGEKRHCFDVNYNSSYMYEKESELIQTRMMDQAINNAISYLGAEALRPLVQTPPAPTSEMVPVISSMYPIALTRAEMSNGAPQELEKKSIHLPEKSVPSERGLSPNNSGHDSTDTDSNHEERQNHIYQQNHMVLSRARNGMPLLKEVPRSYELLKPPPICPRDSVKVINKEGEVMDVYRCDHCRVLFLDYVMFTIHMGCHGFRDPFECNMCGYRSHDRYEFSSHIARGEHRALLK
UniProt Q9UKS7, whole entry: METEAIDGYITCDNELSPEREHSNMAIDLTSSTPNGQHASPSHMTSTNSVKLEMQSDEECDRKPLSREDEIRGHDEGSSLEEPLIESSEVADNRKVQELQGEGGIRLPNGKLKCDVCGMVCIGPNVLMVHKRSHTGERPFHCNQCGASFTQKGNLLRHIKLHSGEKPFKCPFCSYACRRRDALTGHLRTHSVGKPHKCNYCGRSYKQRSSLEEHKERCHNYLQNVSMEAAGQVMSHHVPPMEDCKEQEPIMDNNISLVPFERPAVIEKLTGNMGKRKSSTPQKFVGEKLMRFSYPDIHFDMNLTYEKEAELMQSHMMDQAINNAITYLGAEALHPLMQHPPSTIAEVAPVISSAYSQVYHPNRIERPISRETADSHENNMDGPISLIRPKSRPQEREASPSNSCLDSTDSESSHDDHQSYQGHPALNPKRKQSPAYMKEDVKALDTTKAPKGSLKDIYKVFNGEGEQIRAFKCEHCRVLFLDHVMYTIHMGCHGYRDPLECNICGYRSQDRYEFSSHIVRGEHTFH
UniProt Q16531, whole entry partner: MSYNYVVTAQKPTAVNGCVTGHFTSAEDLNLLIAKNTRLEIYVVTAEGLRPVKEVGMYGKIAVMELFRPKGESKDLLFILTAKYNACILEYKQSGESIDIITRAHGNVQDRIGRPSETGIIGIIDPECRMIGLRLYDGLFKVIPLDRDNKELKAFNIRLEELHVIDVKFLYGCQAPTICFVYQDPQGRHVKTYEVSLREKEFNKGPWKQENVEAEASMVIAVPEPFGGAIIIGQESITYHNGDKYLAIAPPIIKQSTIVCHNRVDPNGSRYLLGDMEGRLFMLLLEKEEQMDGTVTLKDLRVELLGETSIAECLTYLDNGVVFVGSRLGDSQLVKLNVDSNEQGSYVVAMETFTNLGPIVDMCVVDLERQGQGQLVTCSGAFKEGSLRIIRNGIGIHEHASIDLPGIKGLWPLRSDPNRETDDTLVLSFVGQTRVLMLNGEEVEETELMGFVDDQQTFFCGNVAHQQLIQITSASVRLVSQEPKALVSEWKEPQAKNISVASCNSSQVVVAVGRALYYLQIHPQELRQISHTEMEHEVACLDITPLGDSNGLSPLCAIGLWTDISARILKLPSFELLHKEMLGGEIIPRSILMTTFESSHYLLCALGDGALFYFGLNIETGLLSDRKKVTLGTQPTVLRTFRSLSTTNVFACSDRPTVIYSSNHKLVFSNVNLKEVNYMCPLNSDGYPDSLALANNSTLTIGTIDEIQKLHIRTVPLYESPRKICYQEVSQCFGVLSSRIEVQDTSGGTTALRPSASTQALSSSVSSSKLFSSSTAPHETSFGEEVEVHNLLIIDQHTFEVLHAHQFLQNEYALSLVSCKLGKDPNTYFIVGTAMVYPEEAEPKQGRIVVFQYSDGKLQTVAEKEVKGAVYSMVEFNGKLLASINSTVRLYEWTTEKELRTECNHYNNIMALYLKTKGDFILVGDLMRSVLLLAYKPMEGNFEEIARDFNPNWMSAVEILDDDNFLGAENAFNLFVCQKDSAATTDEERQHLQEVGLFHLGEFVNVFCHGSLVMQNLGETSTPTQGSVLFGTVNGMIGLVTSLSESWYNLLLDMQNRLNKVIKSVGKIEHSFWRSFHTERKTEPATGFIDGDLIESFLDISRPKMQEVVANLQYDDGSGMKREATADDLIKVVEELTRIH

Tests used:
CRBN = CRBN (Homo sapiens, UniProt Q96SW2); experiment: CRBN binding affinity by HTRF (CEREBLON BINDING kit); conditions: CRBN binding, HTRF; for Inhibition Rate at 0.5 µM (%): compound at 0.5 µM; for Inhibition Rate at 2 µM (%): compound at 2 µM
[1] = tested on: Human myeloid monocytic leukemia cell (MV-4-11); experiment: Tumor cell proliferation inhibition (cell viability assay); conditions: MV-4-11 cells, 96 hours
WEE1 = WEE1 (Homo sapiens, UniProt P30291+Q96SW2); experiment: Western blot assay of substrate protein degradation in hPBMCs; conditions: 24 hours treatment, compounds at 50 nM and 500 nM (concentration behind the class not stated)
GSPT1 = GSPT1 (Homo sapiens, UniProt P15170+Q96SW2); experiment: as above; conditions: 24 hours treatment, compounds at 50 nM and 500 nM (concentration behind the class not stated)
CK1α = CK1α (Homo sapiens, UniProt P48729+Q96SW2); experiment: as above; conditions: 24 hours treatment, compounds at 50 nM and 500 nM (concentration behind the class not stated)
IKZF1 = IKZF1 (Homo sapiens, UniProt Q13422+Q96SW2); experiment: as above; conditions: 24 hours treatment, compounds at 50 nM and 500 nM (concentration behind the class not stated)
IKZF3 = IKZF3 (Homo sapiens, UniProt Q96SW2+Q9UKT9); experiment: as above; conditions: 24 hours treatment, compounds at 50 nM and 500 nM (concentration behind the class not stated)
IKZF2 = IKZF2 (Homo sapiens, UniProt Q96SW2+Q9UKS7); experiment: as above; conditions: 24 hours treatment, compounds at 50 nM and 500 nM (concentration behind the class not stated)

Row | Inhibition Rate at 0.5 µM (%) (CRBN) | Inhibition Rate at 2 µM (%) (CRBN) | SMILES | Inhibition Rate at 10 nM (%) [1] | Inhibition Rate at 500 nM (%) [1] | substrate protein remaining % (WEE1) (WEE1) | substrate protein remaining % (GSPT1) (GSPT1) | substrate protein remaining % (CK1a) (CK1α) | substrate protein remaining % (IKZF 1) (IKZF1) | substrate protein remaining % (IKZF3) (IKZF3) | substrate protein remaining % (IKZF2) (IKZF2)
1 | a3 (30% < a3 ≤ 40%) | a6 (60% < a6 ≤ 70%) | O=C1CCC(N2Cc3cc(C(=O)N4CCC(N5CC=C(c6cccc(Cl)c6Cl)CC5)C(F)(F)C4)ccc3C2=O)C(=O)N1 (centres unmarked) | 1a4 (20% ≤ 1a4 < 30%) | 1a7 (50% ≤ 1a7 < 60%) | A (0% ≤ substrate protein remaining % ≤ 80%) | A (0% ≤ substrate protein remaining % ≤ 80%) | A (0% ≤ substrate protein remaining % ≤ 80%) | A (0% ≤ substrate protein remaining % ≤ 80%) | B (80%< substrate protein remaining %≤ 100%) | A (0% ≤ substrate protein remaining % ≤ 80%)
2 | a3 (30% < a3 ≤ 40%) | a6 (60% < a6 ≤ 70%) | O=C1CCC(N2Cc3cccc(C(=O)N4CCC(N5CC=C(c6cccc(Cl)c6Cl)CC5)C(F)(F)C4)c3C2=O)C(=O)N1 (centres unmarked) | 1a7 (50% ≤ 1a7 < 60%) | 1a9 (70% ≤ 1a9 < 80%) | A (0% ≤ substrate protein remaining % ≤ 80%) | A (0% ≤ substrate protein remaining % ≤ 80%) | A (0% ≤ substrate protein remaining % ≤ 80%) | A (0% ≤ substrate protein remaining % ≤ 80%) | A (0% ≤ substrate protein remaining % ≤ 80%) | A (0% ≤ substrate protein remaining % ≤ 80%)
3 | a4 (40% < a4 ≤ 53%) | a8 (80% < a8 ≤100%) | O=C1CCC(N2Cc3ccc(CN4CCC(N5CCN(c6cccc(Cl)c6Cl)CC5)CC4)cc3C2=S)C(=O)N1 (centres unmarked) | 1a8 (60% ≤ 1a8 < 70%) | 1a9 (70% ≤ 1a9 < 80%) |  |  |  |  |  | 
4 | a3 (30% < a3 ≤ 40%) | a6 (60% < a6 ≤ 70%) | O=C1CCC(N2Cc3c(C(=O)N4CCC(N5CCN(C(c6ccccc6)c6ccccc6)CC5)CC4)cccc3C2=O)C(=O)N1 (centres unmarked) | 1a5 (30% ≤ 1a5 ≤ 40%) | 1a9 (70% ≤ 1a9 < 80%) | B (80%< substrate protein remaining %≤ 100%) | A (0% ≤ substrate protein remaining % ≤ 80%) | B (80%< substrate protein remaining %≤ 100%) | B (80%< substrate protein remaining %≤ 100%) | B (80%< substrate protein remaining %≤ 100%) | B (80%< substrate protein remaining %≤ 100%)

The next lines start with the compound.

Row | SMILES | Inhibition Rate at 0.5 µM (%) (CRBN) | Inhibition Rate at 2 µM (%) (CRBN) | Inhibition Rate at 10 nM (%) [1] | Inhibition Rate at 500 nM (%) [1] | substrate protein remaining % (WEE1) (WEE1) | substrate protein remaining % (GSPT1) (GSPT1) | substrate protein remaining % (CK1a) (CK1α) | substrate protein remaining % (IKZF 1) (IKZF1) | substrate protein remaining % (IKZF3) (IKZF3) | substrate protein remaining % (IKZF2) (IKZF2)
5 | O=C1CCC(N2Cc3cc(CN4CCC(N5CC=C(c6cccc(Cl)c6Cl)CC5)C(F)(F)C4)ccc3C2=S)C(=O)N1 (centres unmarked) | a4 (40% < a4 ≤ 53%) | a8 (80% < a8 ≤100%) | 1a5 (30% ≤ 1a5 ≤ 40%) | 1a9 (70% ≤ 1a9 < 80%) | A (0% ≤ substrate protein remaining % ≤ 80%) | A (0% ≤ substrate protein remaining % ≤ 80%) | B (80%< substrate protein remaining %≤ 100%) | B (80%< substrate protein remaining %≤ 100%) | A (0% ≤ substrate protein remaining % ≤ 80%) | A (0% ≤ substrate protein remaining % ≤ 80%)
6 | O=C1CCC(N2Cc3ccc(C(=O)N4CCC(N5CCN(c6noc7cc(F)ccc67)CC5)CC4)cc3C2=O)C(=O)N1 (centres unmarked) |  |  | 1a5 (30% ≤ 1a5 ≤ 40%) | 1a7 (50% ≤ 1a7 < 60%) | B (80%< substrate protein remaining %≤ 100%) | A (0% ≤ substrate protein remaining % ≤ 80%) | B (80%< substrate protein remaining %≤ 100%) | B (80%< substrate protein remaining %≤ 100%) | B (80%< substrate protein remaining %≤ 100%) | B (80%< substrate protein remaining %≤ 100%)
7 | O=C1CCC(N2Cc3cc(C(=O)N4CCC(N5CCN(c6noc7cc(F)ccc67)CC5)CC4)c(F)cc3C2=O)C(=O)N1 (centres unmarked) |  |  | 1a5 (30% ≤ 1a5 ≤ 40%) | 1a8 (60% ≤ 1a8 < 70%) | A (0% ≤ substrate protein remaining % ≤ 80%) | A (0% ≤ substrate protein remaining % ≤ 80%) | A (0% ≤ substrate protein remaining % ≤ 80%) | B (80%< substrate protein remaining %≤ 100%) | B (80%< substrate protein remaining %≤ 100%) | B (80%< substrate protein remaining %≤ 100%)
8 | O=C1CCC(N2Cc3cccc(C(=O)N4CCC(N5CCN(c6noc7cc(F)ccc67)CC5)CC4)c3C2=O)C(=O)N1 (centres unmarked) |  |  | 1a8 (60% ≤ 1a8 < 70%) | 1a8 (60% ≤ 1a8 < 70%) | B (80%< substrate protein remaining %≤ 100%) | A (0% ≤ substrate protein remaining % ≤ 80%) | B (80%< substrate protein remaining %≤ 100%) | B (80%< substrate protein remaining %≤ 100%) | B (80%< substrate protein remaining %≤ 100%) | B (80%< substrate protein remaining %≤ 100%)
9 | O=C1CCC(N2Cc3c(CN4CCC(N5CCN(c6cccc(Cl)c6Cl)CC5)CC4)cccc3C2=S)C(=O)N1 (centres unmarked) |  |  | 1a3 (10% ≤ 1a3 < 20%) | 1a7 (50% ≤ 1a7 < 60%) | B (80%< substrate protein remaining %≤ 100%) | A (0% ≤ substrate protein remaining % ≤ 80%) | A (0% ≤ substrate protein remaining % ≤ 80%) | B (80%< substrate protein remaining %≤ 100%) | B (80%< substrate protein remaining %≤ 100%) | A (0% ≤ substrate protein remaining % ≤ 80%)
10 | CC1(C)CCC(CN2CCN(C3CCN(CCCc4ccc5c(c4)CN(C4CCC(=O)NC4=O)C5=O)CC3(F)F)CC2)=C(c2ccc(Cl)cc2)C1 (centres unmarked) | a2 (20% < a2 ≤ 30%) | a7 (70% < a7 ≤80%) |  |  | B (80%< substrate protein remaining %≤ 100%) | A (0% ≤ substrate protein remaining % ≤ 80%) | B (80%< substrate protein remaining %≤ 100%) | B (80%< substrate protein remaining %≤ 100%) | B (80%< substrate protein remaining %≤ 100%) | A (0% ≤ substrate protein remaining % ≤ 80%)
11 | O=C1CCC(N2Cc3cc(CN4CCC(N5CCN(c6noc7cc(F)ccc67)CC5)C(F)(F)C4)ccc3C2=S)C(=O)N1 (centres unmarked) | a5 (53% < a5 ≤ 60%) | a8 (80% < a8 ≤100%) |  |  | A (0% ≤ substrate protein remaining % ≤ 80%) | B (80%< substrate protein remaining %≤ 100%) | B (80%< substrate protein remaining %≤ 100%) | B (80%< substrate protein remaining %≤ 100%) | A (0% ≤ substrate protein remaining % ≤ 80%) | B (80%< substrate protein remaining %≤ 100%)
